Curated experimental data: melting point values

The melting point is given in degrees Celsius.

The entry for CC(=O)c1cccc(C(F)(F)F)c1 [Ethanone, 1-[3-(trifluoromethyl)phenyl]-] lists mp -0.8 °C.
The entry for Cc1nc2sccn2c1C=O [6-Methylimidazo[2,1-b][1,3]thiazole-5-carbaldehyde] lists mp 95 °C.
The entry for COc1cc(CC(C(C)=O)C(C)=O)ccc1O [2,4-Pentanedione, 3-vanillyl-] lists mp 82.23 °C.
The entry for Cc1c(F)cccc1CC#N [2-(3-fluoro-2-methylphenyl)acetonitrile] lists mp 46.5 °C.
The entry for NC(=O)N1CCC(C(=O)O)CC1 [1-carbamoylpiperidine-4-carboxylic Acid] lists mp 194 °C.
The entry for O=C(O)CCc1ccc(S(=O)(=O)N2CCCC2)cc1 [3-[4-(pyrrolidin-1-ylsulfonyl)phenyl]propanoic acid] lists mp 138 °C.
The entry for CC1(C)c2ccccc2-c2ccc(N(c3ccccc3-c3ccccc3)c3cccc4c3-c3ccccc3C43c4ccccc4-c4ccccc43)cc21 lists mp 266 °C.
The entry for Cl.Nc1cc(C(=O)NCC(O)CO)cc(C(=O)NCC(O)CO)c1 (stereo unspecified) lists mp 186 °C.
The entry for O=c1oc(-c2ccccc2NS(=O)(=O)c2ccc3ccccc3c2)nc2ccccc12 lists mp 194.4 °C.
The entry for COCc1cccc(C(=O)O)c1 [3-(methoxymethyl)benzoic Acid] lists mp 65 °C.
The entry for Cc1ccc(N2C(=O)C=CC2=O)cc1N1C(=O)C=CC1=O [Toluene-2,4-dimaleimide] lists mp 175 °C.
The entry for CC1(C)[C@@H]2CC[C@@]3(C2)[C@H]1C(=O)CCC3(C)C (relative stereo) lists mp -7.1 °C.
The entry for O=C(Nc1ccc2c([O-])c(/N=N/c3ccc(-c4ccc(/N=N/c5c(S(=O)(=O)[O-])cc6cc(S(=O)(=O)[O-])cc(O)c6c5[O-])c([O-])c4)cc3[O-])c(S(=O)(=O)[O-])cc2c1)c1ccccc1.[Cu+2].[Cu+2].[Na+].[Na+].[Na+] lists mp 254 °C.
The entry for Clc1ccc(Cl)c(-c2ccc(Cl)c(Cl)c2Cl)c1 [2,2',3,4,5'-Pentachlorobiphenyl] lists mp 112 °C.
The entry for O=C1CCC([C@H]2CC[C@H](c3ccc(F)c(F)c3)CC2)CC1 lists mp 77.3 °C.
The entry for O=[N+]([O-])c1cc(Cl)c(OC(F)(F)C(F)C(F)(F)F)cc1Cl (stereo unspecified) lists mp -72 °C.
The entry for CCCCCCCCCCCCOC(=O)C(CC)CCCC (stereo unspecified) [C12-15 alkyl ethylhexanoate] lists mp -35.4 °C.
The entry for NC(=O)NC(Cc1ccccc1)C(=O)O (stereo unspecified) [N-Carbamoylphenylalanine] lists mp 187 °C.
The entry for CC(C)CC(C)(O)CCC(C)(O)CC(C)C (stereo unspecified) [2,4,7,9-tetramethyldecane-4,7-diol] lists mp -37 °C.
The entry for CC(=O)Nc1ccc(O)c(S(=O)(=O)Cl)c1 [5-Acetamido-2-hydroxybenzene-1-sulfonyl chloride] lists mp 165 °C.
The entry for COc1ccc(-c2n[nH]c(=S)o2)cc1 [5-(4-Methoxyphenyl)-1,3,4-oxadiazole-2-thiol] lists mp 203 °C.
The entry for COS(=O)(=O)[O-].C[N+](CCO)(CCO)CCO lists mp -46.5 °C.
The entry for CC(CCl)OP(=O)(OCC(CCl)(CCl)COP(=O)(OC(C)CCl)OC(C)CCl)OC(C)CCl (stereo unspecified) lists mp 50.5 °C.
The entry for CCC1(C)Nc2cccc3cccc(c23)N1 [2-Ethyl-2-methyl-2,3-dihydroperimidine] lists mp 24 °C.
The entry for Cc1ccccc1S(=O)(=O)O [2-Methylbenzenesulfonic acid] lists mp 67.5 °C.
The entry for COc1ccc(F)c(F)c1O [2,3-Difluoro-6-methoxyphenol] lists mp 45.5 °C.
The entry for CC1=C(O)C(=O)c2ccccc2C1=O [2-ME-3-OH-1,4-NAPHTHOQUINONE] lists mp 174 °C.
The entry for ClCc1coc(-c2ccccc2)n1 [4-chloromethyl-2-phenyl-oxazole] lists mp 53 °C.
The entry for O=C(O)CCc1nc(-c2ccccc2)no1 [3-(3-phenyl-1,2,4-oxadiazol-5-yl)propanoic acid] lists mp 139 °C.
The entry for Cc1cc(C)n(CC(=O)O)n1 [(3,5-Dimethyl-pyrazol-1-yl)-acetic acid] lists mp 188 °C.
The entry for CC(O)c1nc2ccccc2s1 (stereo unspecified) [1-(1,3-benzothiazol-2-yl)ethanol] lists mp 62 °C.
The entry for Cn1cnnc1-c1ccc(N)cc1 [4-(4-methyl-4H-1,2,4-triazol-3-yl)aniline] lists mp 257 °C.
The entry for O=C(O)c1cc2c(s1)CCCC2 [4,5,6,7-tetrahydrobenzo[b]thiophene-2-carboxylic acid] lists mp 180 °C.
The entry for C=CC(=O)OCCC(C)CCOC(=O)C=C [3-Methyl-1,5-pentanediyl diacrylate] lists mp -17.4 °C.
The entry for Cc1ccc([C@@H]2O[C@H](COC(=O)C(C)(C)C)[C@@H](OC(=O)C(C)(C)C)[C@H](OC(=O)C(C)(C)C)[C@H]2OC(=O)C(C)(C)C)cc1Cc1ccc(-c2ccc(F)cc2)s1 lists mp 141.7 °C.
The entry for COc1ccc(C)cc1CC(=O)O [(2-Methoxy-5-methylphenyl)acetic acid] lists mp 132 °C.
The entry for CCCCC(CC)COC(=O)CCc1cc(C(C)(C)C)c(O)c(C(C)(C)C)c1 (stereo unspecified) [2-Ethylhexyl 3-(3,5-di-tert-butyl-4-hydroxyphenyl)propionate] lists mp -44.2 °C.
The entry for NC(=O)Cc1cccs1 [Thiophen-2-acetamide] lists mp 146.5 °C.
The entry for COc1ccc(C(=O)NCC(=O)O)cc1 [4-Methyoxybenzoyl-N-glycine] lists mp 166 °C.
The entry for O=C(O)c1c[nH]cc1-c1ccccc1 [4-phenyl-1H-pyrrole-3-carboxylic Acid] lists mp 213 °C.
The entry for CC1=C(CCC(=O)O)c2cc3[nH]c(cc4nc(cc5[nH]c(cc1n2)c(C)c5C(C)O)C(C)=C4C(C)O)c(C)c3CCC(=O)O (stereo unspecified) [Hematoporphyrin] lists mp 172 °C.
The entry for CCOC(=O)ON=C(C)C(=O)c1ccccc1 [1,2-Propanedione, 1-phenyl-, 2-[O-(ethoxycarbonyl)oxime]] lists mp 59.3 °C.
The entry for CS(=O)(=O)c1ccccc1N [2-(Methanesulfonyl)anilinato] lists mp 63 °C.
The entry for CCCCc1ccc(-c2ccc(-c3ccc(CC)cc3)cc2F)cc1 lists mp 69.2 °C.
The entry for CCN(CC)c1ccc(N=Nc2c(C#N)cc([N+](=O)[O-])cc2C#N)c(C)c1 lists mp 220.9 °C.
The entry for CN1C(=O)c2ccc(C(=O)O)cc2C1=O [2-methyl-1,3-dioxoisoindoline-5-carboxylic acid] lists mp 174 °C.

7 of these entries, quoted again:

{"smiles": "CC1(C)c2ccccc2-c2ccc(N(c3ccccc3-c3ccccc3)c3cccc4c3-c3ccccc3C43c4ccccc4-c4ccccc43)cc21", "mp (°C)": "266"}
{"smiles": "O=C(Nc1ccc2c([O-])c(/N=N/c3ccc(-c4ccc(/N=N/c5c(S(=O)(=O)[O-])cc6cc(S(=O)(=O)[O-])cc(O)c6c5[O-])c([O-])c4)cc3[O-])c(S(=O)(=O)[O-])cc2c1)c1ccccc1.[Cu+2].[Cu+2].[Na+].[Na+].[Na+]", "mp (°C)": "254"}
{"smiles": "Cc1c(F)cccc1CC#N", "name": "2-(3-fluoro-2-methylphenyl)acetonitrile", "mp (°C)": "46.5"}
{"smiles": "COc1ccc(F)c(F)c1O", "name": "2,3-Difluoro-6-methoxyphenol", "mp (°C)": "45.5"}
{"smiles": "COc1cc(CC(C(C)=O)C(C)=O)ccc1O", "name": "2,4-Pentanedione, 3-vanillyl-", "mp (°C)": "82.23"}
{"smiles": "Cc1cc(C)n(CC(=O)O)n1", "name": "(3,5-Dimethyl-pyrazol-1-yl)-acetic acid", "mp (°C)": "188"}
{"smiles": "CCC1(C)Nc2cccc3cccc(c23)N1", "name": "2-Ethyl-2-methyl-2,3-dihydroperimidine", "mp (°C)": "24"}

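These are experimental values that the OPERA curators gathered from public databases to train and test their QSAR models. The files give a single number for a compound and property, which may rest on several reports. Method and conditions are not stated for these values. Where a salt, mixture or single isomer is drawn, the source does not say that exactly this form was tested. Some upstream entries may be estimates or bounds without being marked so.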

Source: data files of OPERA 2.9 (Mansouri et al.), github.com/kmansouri/OPERA.